Results published in PMC8516733 (Biomedicine & pharmacotherapy = Biomedecine & …, 2021).

Sequences of proteins named here, by UniProt entry; tags and fusion partners are left off. A change or cut given only in a name is not applied to a line headed by its entry.
UniProt P34975: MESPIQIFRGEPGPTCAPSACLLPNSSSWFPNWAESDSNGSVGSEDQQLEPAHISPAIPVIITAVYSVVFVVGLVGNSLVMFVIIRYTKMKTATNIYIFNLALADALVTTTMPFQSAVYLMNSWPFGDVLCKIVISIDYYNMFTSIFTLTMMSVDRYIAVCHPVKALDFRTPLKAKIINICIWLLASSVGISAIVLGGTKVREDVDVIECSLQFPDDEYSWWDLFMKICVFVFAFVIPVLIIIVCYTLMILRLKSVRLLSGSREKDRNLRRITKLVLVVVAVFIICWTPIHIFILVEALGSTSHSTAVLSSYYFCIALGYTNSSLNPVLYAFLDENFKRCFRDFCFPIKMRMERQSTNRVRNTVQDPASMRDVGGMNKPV

Biological target: cloned rat kappa opioid receptors (Rattus norvegicus, UniProt P34975)
Assay type: cell-based

Row | Substance | Effect of the compound alone on FMP fluorescence | Efficacy (relative) | IC50 (read-out: IC50 (nM), potency (95% CI)) [nM]
1 | cyclo [D-Pen^2,D-Pen^5]enkephalin [DPDPE] | neither DPDPE nor DAMGO triggered a decrease in FMP fluorescence intensity |  | 
2 | (−)-cyclazocine |  | 0.64 ± 0.04 | 1.91
3 | [D-Ala^2,NMePhe^4]enkephalin-glyol [DAMGO] | neither DPDPE nor DAMGO triggered a decrease in FMP fluorescence intensity |  | 
